This note sets out measurements from ChEMBL document CHEMBL1148829, “Cinnamoyl derivatives of 7alpha-aminomethyl-6,14-endo-ethanotetrahydrothebaine and 7alpha-aminomethyl-6,14-endo-ethanotetrahydrooripavine and related opioid ligands” (2007).

Chains of the proteins cited; added tags and fusions are not shown. Lines headed by an entry give the natural chain unless they say otherwise; changes in a name come on top.
UniProt P35372, whole entry: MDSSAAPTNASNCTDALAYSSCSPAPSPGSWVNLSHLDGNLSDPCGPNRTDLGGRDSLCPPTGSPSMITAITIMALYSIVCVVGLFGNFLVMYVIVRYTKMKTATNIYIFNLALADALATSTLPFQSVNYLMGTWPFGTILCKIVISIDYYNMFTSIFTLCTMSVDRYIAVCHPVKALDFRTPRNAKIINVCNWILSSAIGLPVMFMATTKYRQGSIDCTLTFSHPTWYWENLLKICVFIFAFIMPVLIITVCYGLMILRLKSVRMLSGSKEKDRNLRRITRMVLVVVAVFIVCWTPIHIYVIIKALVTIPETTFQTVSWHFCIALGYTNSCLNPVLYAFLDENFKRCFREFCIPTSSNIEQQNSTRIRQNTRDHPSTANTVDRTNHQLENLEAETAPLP
UniProt P41143, whole entry: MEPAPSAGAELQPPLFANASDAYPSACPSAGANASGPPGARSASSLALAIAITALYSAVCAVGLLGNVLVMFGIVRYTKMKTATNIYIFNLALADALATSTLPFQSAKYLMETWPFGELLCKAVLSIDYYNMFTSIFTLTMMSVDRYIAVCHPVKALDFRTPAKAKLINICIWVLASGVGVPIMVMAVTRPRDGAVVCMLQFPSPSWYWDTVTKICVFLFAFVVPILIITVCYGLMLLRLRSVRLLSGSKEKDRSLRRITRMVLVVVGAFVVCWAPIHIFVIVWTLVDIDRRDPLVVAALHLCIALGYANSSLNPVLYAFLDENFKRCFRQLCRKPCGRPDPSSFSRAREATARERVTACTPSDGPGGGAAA
UniProt P41145, whole entry: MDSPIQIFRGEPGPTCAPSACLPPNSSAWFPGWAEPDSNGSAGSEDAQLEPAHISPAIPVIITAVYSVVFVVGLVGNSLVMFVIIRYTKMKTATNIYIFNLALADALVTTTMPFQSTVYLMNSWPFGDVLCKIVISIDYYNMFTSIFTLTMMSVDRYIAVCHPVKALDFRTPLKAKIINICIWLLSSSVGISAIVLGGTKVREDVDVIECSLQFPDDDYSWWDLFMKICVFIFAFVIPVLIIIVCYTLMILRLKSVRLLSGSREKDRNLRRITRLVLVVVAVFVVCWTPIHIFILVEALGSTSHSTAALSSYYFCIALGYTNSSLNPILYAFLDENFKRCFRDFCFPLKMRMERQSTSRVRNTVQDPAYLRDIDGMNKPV

Assay [1] concerns the target Mu-type opioid receptor (Homo sapiens) (UniProt P35372). The experiment in a line: Agonist activity at human mu opioid receptor expressed in CHO cells assessed as stimulation of [35S]GTP-gamma-S binding relative to DAMGO.
The target of assay [2] is Delta-type opioid receptor (Homo sapiens) (UniProt P41143). The experiment in a line: Agonist activity at human delta opioid receptor expressed in CHO cells assessed as stimulation of [35S]GTPgammaS binding relative to DPDPE.
Assay [3] concerns the target Kappa-type opioid receptor (Homo sapiens) (UniProt P41145). The experiment in a line: Agonist activity at human kappa opioid receptor expressed in CHO cells assessed as stimulation of [35S]GTPgammaS binding relative to U69593.
Assay [4] addresses Mu-type opioid receptor (Homo sapiens) (UniProt P35372). The experiment in a line: Antagonist activity at human mu opioid receptor expressed in CHO cells assessed as effect on [35S]GTP-gamma-S binding.
The target in assay [5] is Kappa-type opioid receptor (Homo sapiens) (UniProt P41145). The experiment in a line: Antagonist activity at human kappa opioid receptor expressed in CHO cells assessed as effect on 35S]GTPgammaS binding.
For assay [6], the target named is Opioid receptors; mu & delta (Homo sapiens) (UniProt P41143+P35372). The experiment in a line: Selectivity for human mu opioid receptor over human delta opiod receptor.
The target in assay [7] is Opioid receptors; mu & kappa (Homo sapiens) (UniProt P41145+P35372). The experiment in a line: Selectivity for human mu opioid receptor over human kappa opiod receptor.

`CO[C@@]12CC[C@@]3(C[C@@H]1CNC(=O)/C=C/c1ccc(Cl)cc1)[C@H]1Cc4ccc(O)c5c4[C@@]3(CCN1C)[C@H]2O5`: the results for the Activity in assay [1], in assay [2] and in assay [3] were 25%, 63% and 36%, respectively.
For `CO[C@@]12CC[C@@]3(C[C@@H]1CNC/C=C/c1ccccc1)[C@H]1Cc4ccc(O)c5c4[C@@]3(CCN1C)[C@H]2O5`, the Activity in assay [2] was 33%; in assay [3], 88%.
Taken in the same sequence, the figures for `COc1ccccc1/C=C/C(=O)NC[C@H]1C[C@@]23CC[C@@]1(OC)[C@@H]1Oc4c(OC)ccc5c4[C@@]12CCN(C)[C@@H]3C5` were 64% and 16%.
As for `COc1ccc2c3c1O[C@H]1[C@]4(OC)CC[C@@]5(C[C@@H]4CNC/C=C/c4ccccc4)[C@@H](C2)N(C)CC[C@]315`, the Activity in assay [3] is 79%.
As to `CO[C@@]12C=C[C@@]3([C@@H]4CN(C(=O)/C=C/c5ccccc5C)C[C@@H]41)[C@H]1Cc4ccc(O)c5c4[C@@]3(CCN1C)[C@H]2O5`, the Activity came out at 54% in assay [2] and 88% in assay [3].
For `CO[C@@]12CC[C@@]3(C[C@@H]1CNC(=O)/C=C/c1ccccc1Cl)[C@H]1Cc4ccc(O)c5c4[C@@]3(CCN1C)[C@H]2O5`, the Activity in assay [1] turned out to be 38%; in assay [2], 60%; in assay [3], 40%.
Regarding `CO[C@@]12CC[C@@]3(C[C@@H]1CNC/C=C/c1ccc(Cl)cc1)[C@H]1Cc4ccc(O)c5c4[C@@]3(CCN1C)[C@H]2O5`, the figures for the Activity in assay [2] and in assay [3] were 39% and 24%, respectively.
Take `COc1ccc(/C=C/C(=O)NC[C@H]2C[C@@]34CC[C@@]2(OC)[C@@H]2Oc5c(OC)ccc6c5[C@@]23CCN(C)[C@@H]4C6)cc1`: the Activity is 27% in assay [1] and 52% in assay [3].
As for `COc1ccc2c3c1O[C@H]1[C@]4(OC)CC[C@@]5(C[C@@H]4CNC(=O)/C=C/c4ccc(Cl)cc4)[C@@H](C2)N(C)CC[C@]315`, the Ke in assay [4] stood at 32.3 nM; in assay [5] it was 196 nM.
On to `CO[C@@]12C=C[C@@]3([C@@H]4CN(C(=O)/C=C/c5ccc(C)cc5)C[C@@H]41)[C@H]1Cc4ccc(O)c5c4[C@@]3(CCN1C)[C@H]2O5`, for which the figures for the Activity in assay [1], in assay [2] and in assay [3] were 48%, 70% and 75%, respectively.
Take `CO[C@@]12CC[C@@]3(C[C@@H]1CNC(=O)/C=C/c1ccccc1)[C@H]1Cc4ccc(O)c5c4[C@@]3(CCN1C)[C@H]2O5`: the Activity in assay [2] came to 36%; in assay [3] it was 26%.
Turning to `COc1ccc2c3c1O[C@H]1[C@]4(OC)CC[C@@]5(C[C@@H]4CNC(=O)/C=C/c4ccccc4)[C@@H](C2)N(C)CC[C@]315`, the Activity stood at 34% in assay [1], 74% in assay [2] and 51% in assay [3].
Turning to `CO[C@@]12CC[C@@]3(C[C@@H]1CNC(=O)/C=C/c1ccc(C)cc1)[C@H]1Cc4ccc(O)c5c4[C@@]3(CCN1C)[C@H]2O5`, in assay [4], the Ke is 0.33 nM. For the same molecule, the Activity is 51% in assay [2] and 43% in assay [3].
As for `CO[C@@]12CC[C@@]3(C[C@@H]1CNC(=O)/C=C/c1ccccc1C)[C@H]1Cc4ccc(O)c5c4[C@@]3(CCN1C)[C@H]2O5`, the Ke in assay [5] turned out to be 4.02 nM. Moreover, the Activity in assay [2] was found to be 63%.
In the case of `COc1ccc2c3c1O[C@H]1[C@]4(OC)CC[C@@]5(C[C@@H]4CNC(=O)/C=C/c4ccc(C)cc4)[C@@H](C2)N(C)CC[C@]315`, the Ke in assay [4] is 47.4 nM. Further, the Activity in assay [3] stood at 27%.
As for `COc1ccc2c3c1O[C@H]1[C@]4(OC)CC[C@@]5(C[C@@H]4CNC(=O)/C=C/c4ccccc4[N+](=O)[O-])[C@@H](C2)N(C)CC[C@]315`, the Activity came to 58% in assay [2] and 23% in assay [3].
For `COc1ccc2c3c1O[C@H]1[C@]4(OC)CC[C@@]5(C[C@@H]4CNC(=O)/C=C/c4ccccc4C)[C@@H](C2)N(C)CC[C@]315`, the values for the Activity in assay [2] and in assay [3] were 87% and 80%, respectively.
Turning to `COc1ccc2c3c1O[C@H]1[C@]4(OC)CC[C@@]5(C[C@@H]4CNC/C=C/c4ccc(Cl)cc4)[C@@H](C2)N(C)CC[C@]315`, the values for the Activity in assay [1] and in assay [3] were 34% and 75%, respectively.
Consider `COc1ccc2c3c1O[C@H]1[C@]4(OC)CC[C@@]5(C[C@@H]4CNC(=O)/C=C/c4ccc([N+](=O)[O-])cc4)[C@@H](C2)N(C)CC[C@]315`, for which the Ratio Ki in assay [6] turned out to be 153; in assay [7], 67. Further, the figures for the Activity in assay [1], in assay [2] and in assay [3] were 24%, 90% and 22%, respectively.
In the case of `CO[C@@]12CC[C@@]3(C[C@@H]1CNC(=O)/C=C/c1ccc([N+](=O)[O-])cc1)[C@H]1Cc4ccc(O)c5c4[C@@]3(CCN1C)[C@H]2O5`, the figures for the Activity in assay [1], in assay [2] and in assay [3] were 32%, 84% and 43%, respectively.
Consider `COc1ccc2c3c1O[C@H]1[C@]4(OC)CC[C@@]5(C[C@@H]4CNC(=O)/C=C/c4ccccc4Cl)[C@@H](C2)N(C)CC[C@]315`, for which the results for the Activity in assay [2] and in assay [3] were 77% and 84%, respectively.
